Measurements as given in patent US12129248B2, “Chromobox protein inhibitors and uses thereof” (Dana-Farber Cancer Institute, Inc., priority 2016, dated 2024).

Amino acid sequences for entries named in this document (tags omitted). Residues count along the entry.
UniProt O95931, 11-69 limits assumed: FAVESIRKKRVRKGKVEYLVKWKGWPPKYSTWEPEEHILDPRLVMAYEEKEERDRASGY

Target: Human His6-CBX7 (Homo sapiens (Human), UniProt O95931)
Test: CBX7 AlphaScreen assay (binding of CBX7 chromodomain to H3K27me3 peptide)
Details: read-out: AVG CBX7 Alpha IC50; average; His6-CBX7 / biotinylated-H3K27me3

IC50: 6.58 µM
Structure (SMILES): N#Cc1ccc(NC(=O)Nc2ncc(CC(=O)Nc3ccc(N4CCCC4)cc3)s2)cc1
